For this assay, the target named is P70S6K (Homo sapiens (Human), UniProt P23443, T412E). Briefly: P70S6K Enzyme Assay. The format is biochemical. How it is done: P70S6K inhibitor compounds are diluted and plated in 96 well plates. A reaction mixture including the following components is then added to the compound plate to initiate the enzyme reaction; P70S6K (3 nM, T412E mutant, Millipore) is mixed with 24 μM ATP in an assay buffer containing 100 mM Hepes (pH 7.5), 5 mM MgCl2, 1 mM DTT, 0.015% Brij and 1 μM of the substrate peptide FITC-AHA-AKRRRLSSLRA-OH (derived from the S6 ribosomal protein sequence, FITC=fluorescein isothiocyanate, AHA=6-aminohexanoic acid). The reaction is incubated for 90 min at 25° C., before the addition of 10 mM EDTA to stop the reaction. The proportion of substrate and product (phosphorylated) peptide is analysed on a Caliper Life Sciences Lab Chip 3000, using a pressure of −1.4 psi, and upstream and downstream voltages of −3000 and −700 respectively. Product peaks are resolved before substrate peaks on the resulting chromatograms.

Protein sequences, listed by entry. Tags and fused reporters are not part of them. Residues count along the entry.
UniProt P23443, 1-421 T412E: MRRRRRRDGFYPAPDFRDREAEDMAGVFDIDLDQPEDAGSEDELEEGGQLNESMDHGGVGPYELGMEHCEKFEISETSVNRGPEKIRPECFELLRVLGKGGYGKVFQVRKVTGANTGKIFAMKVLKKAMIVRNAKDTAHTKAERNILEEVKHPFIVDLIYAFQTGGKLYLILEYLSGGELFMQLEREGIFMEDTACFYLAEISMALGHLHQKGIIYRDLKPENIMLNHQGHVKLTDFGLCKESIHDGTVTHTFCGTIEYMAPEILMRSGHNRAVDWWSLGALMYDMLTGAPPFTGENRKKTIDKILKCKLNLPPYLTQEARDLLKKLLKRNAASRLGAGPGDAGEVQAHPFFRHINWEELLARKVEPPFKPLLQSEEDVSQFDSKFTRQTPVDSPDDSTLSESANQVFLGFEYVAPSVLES

pIC50: −log10 of the molar value.

`NC(=O)c1ccc(NCc2cccc(F)c2)c2cccnc12` [Example 33, 5-(3-Fluorobenzylamino)-quinoline-8-carboxamide] showed a pIC50 of 6.43.
